miR-122 sensor = blocks miR-122 activity in Huh7 sensor cells; Huh7 miR-122 Renilla luciferase sensor, 48 h; neutral wells = 0, positive control = 100; activation (reporter increase), % at 12.5 µM; hit rate 0.3% among 340,000; AID 602342;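 active = mean replicate activation score at least 90 and every replicate individually at or above 90; inconclusive = only one of the two criteria met; inactive = neither criterion met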;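 also: higher luciferase means less miR-122 activity so hits act as miR-122 inhibitors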
PGC1a acetyl inh = modulators of PGC1a acetylation | hit rate 0.17% among 350,000 | U2OS PGC1a acetylation, AlphaScreen anti-acetyl-lysine; with virally co-expressed GCN5 acetyltransferase | inhibition, % at 15.6 µM;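 active = every replicate shows inhibition of at least 40%; inconclusive = mean inhibition at least 40% but some replicate below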;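 also: 0% = neutral control wells and 100% = positive control wells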
Yeast UUG start-1 = modulators of start codon recognition fidelity in yeast; S. cerevisiae UUG-firefly luciferase reporter, luminescence/redox ratio; activity score, % at 18.7 µM; hit rate 0.13% among 350,000; AID 602363;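 active = replicate mean at a twofold rise or more, about +100% in these data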;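 note: firefly luciferase made from a UUG start codon reports start codon fidelity; reporter light over untreated wells divided by growth signal over untreated wells; some hits fall short of that in this replicate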
Cneo AK release = Cryptococcus neoformans lysis via adenylate kinase release; AID 651654; C. neoformans lysis, adenylate kinase release luminescence, 4 h; normalised: neutral wells 0, clomiphene wells 100; lysis activity, % at 15 µM; hit rate 0.2% among 360,000;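 active = mean lysis activity across replicates of at least 80%, whatever share of replicates individually reach that level; inactive = mean lysis activity below 80%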
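Schedule: static 4 h at 37 °C with compound, 1 h detection; system: C. neoformans cells; benchmarks: Clomiphene as positive control; buffer or medium: fresh YPD medium; measure: luminescence rise reflecting yeast cell lysis; measured by: luminescent adenylate kinase detection reagent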
Env fusion inh = HIV envelope-mediated fusion inhibition | HeLa-JRFL Env/CEM21 cell fusion, luciferase | inhibition, % at 12.3 µM | hit rate 1.1% among 360,000 | AID 651610;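 active = mean replicate inhibition score of at least 50 and every replicate individually at or above 50; inconclusive = only one of the two criteria met; inactive = mean below 50 and not all replicates reaching 50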;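 also: 0% = plate neutral controls and 100% = maraviroc near 300 nM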
FN deposition inh = fibronectin deposition inhibition; AH1F fibroblasts, Alexa488-fibronectin deposition fluorescence, overnight; inhibition, % at 12.6 µM; hit rate 0.086% among 350,000;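 active = mean inhibition across replicates of 30% or more, regardless of how many single replicates reach that level; inconclusive = mean under 30% yet at least half of replicates reach 30%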;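 also: positive control wells lacked labelled fibronectin entirely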
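test system = AH1F fibroblasts assembling fluorescent fibronectin matrix | quantity = 10000 AH1F cells per well | buffer or medium = DMEM plus 2% serum, read in PBS | doses = single dose, pinned | incubation = 1 h cell attachment, overnight exposure to compound and label | detection = fluorescence at 485 nm excitation, 525 nm emission | read-out basis = inhibition from reduced deposited-fibronectin fluorescence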
Yeast UUG start-2 = alters UUG start codon use in yeast; shares compounds with Yeast UUG start-1; S. cerevisiae UUG-start firefly luciferase, luminescence, 4 h; 100% means double the DMSO signal; activation, % at 38 µM; 540 tested, under 10 active; AID 652061;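 active = signal increase whose fitted curve reaches an absolute level of 40 at a concentration under 10 µM; inactive = activity opposite to the expected increase, or the rest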
C2C12 COX5a inh = inhibitors of PGC-1a target COX5a expression in C2C12 myotubes; C2C12 myotubes PGC-1a adenovirus, COX5a qPCR; shares compounds with PGC1a acetyl inh; 45 tested, under 10 active; AID 743461; maximal activity, %;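 active = fitted dose curve reaching 40% activity at or below the highest valid dose tested; inconclusive = flat fit between 30% and 70%, or an unusable fit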
AID743468 = change in PGC-1a target gene PDK4 expression, dose response, C2C12 myotubes, RT-qPCR, cherry-pick; shares compounds with PGC1a acetyl inh; PGC-1a adenovirus, PDK4 mRNA qPCR; PDK4 expression increase, % at 19.5 µM; 45 tested, under 10 active; AID 743468;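 active = fitted curve reaching a 40% PDK4 expression rise at or below the top valid tested dose; inconclusive = no clear call, values can overlap the other calls; inactive = the rest, including shifts the wrong way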
* hit, by the source's call; ? = inconclusive; / = no result. A selection: hits, their analogues and other compounds. The true share with any hit is near 1.5%.

SMILES	miR-122 sensor	PGC1a acetyl inh	Yeast UUG start-1	Cneo AK release	Env fusion inh	FN deposition inh	others
O=C(NN=Cc1ccc(N(CCCl)CCCl)cc1Cl)c1cccnc1	/	/	/	/	56.0*	2.4
CC1CC(OC(=O)c2ccccc2)CC(C)N1C (stereo not drawn)	/	/	/	/	4.0	6.0
Cc1ccc(C(=O)Nc2ccc(Cl)cc2C(=O)c2ccccc2)cc1	114.5*	-2.9	-8.6	2.3	-51.3	-2.4
O=C(CNC(=O)OCc1ccccc1)Nc1ccc(Br)cc1C(=O)c1ccccc1	40.0	5.7	-2.0	5.0	59.2*	-10.2
O=C1NC(=O)N(Cc2ccccc2)C(=O)C1Cc1ccccc1 (stereo not drawn)	/	/	/	/	-18.1	/
Cc1[nH]c2ccc(OC(F)(F)F)cc2c1CCNCc1ccc(Cl)cc1	/	-3.2	-10.8	8.3	92.6*	29.7
COc1ccc2[nH]c(C)c(CCNCc3cccnc3)c2c1	2.6	2.9	-19.2	-2.7	/	-16.9
Cc1ccc2[nH]c(C)c(CCNCc3ccco3)c2c1	-2.2	/	6.4	-1.5	-1.4	1.0
Cc1[nH]c2ccc(OC(F)(F)F)cc2c1CCNCc1cccc([N+](=O)[O-])c1	13.4	/	-12.2	-2.5	66.8*	2.1
CCOc1cccc(CNCCc2c(C)[nH]c3ccc(OC(F)(F)F)cc23)c1O	2.5	/	-7.0	1.9	62.5*	0.9

Looked up one by one from the list above, 5 records:
SMILES	miR-122 sensor	PGC1a acetyl inh	Yeast UUG start-1	Cneo AK release	Env fusion inh	FN deposition inh	others
O=C(CNC(=O)OCc1ccccc1)Nc1ccc(Br)cc1C(=O)c1ccccc1	40.0	5.7	-2.0	5.0	59.2*	-10.2
O=C1NC(=O)N(Cc2ccccc2)C(=O)C1Cc1ccccc1 (stereo not drawn)	/	/	/	/	-18.1	/
Cc1ccc2[nH]c(C)c(CCNCc3ccco3)c2c1	-2.2	/	6.4	-1.5	-1.4	1.0
CCOc1cccc(CNCCc2c(C)[nH]c3ccc(OC(F)(F)F)cc23)c1O	2.5	/	-7.0	1.9	62.5*	0.9
Cc1[nH]c2ccc(OC(F)(F)F)cc2c1CCNCc1ccc(Cl)cc1	/	-3.2	-10.8	8.3	92.6*	29.7

Next section
SMILES	miR-122 sensor	PGC1a acetyl inh	Yeast UUG start-1	Cneo AK release	Env fusion inh	FN deposition inh	others
CCOc1cc(CNCCc2ccccc2F)ccc1OC	-3.4	2.0	-3.3	0.5	5.2	5.6
CC(C)[C@H]1C(=O)O[C@@H]2CCN3CC=C(COC(=O)[C@](C)(O)[C@]1(C)O)[C@H]23	-2.0	5.8	5.5	-0.5	-10.8	-0.3
Cc1cccc(N2C(=O)NC(=O)/C(=C/c3ccc(N4CCOCC4)cc3)C2=O)c1	/	/	/	/	5.5	16.6
Nc1ncnc2c1ccn2[C@@H]1O[C@H](CO)[C@@H](O)[C@H]1O	-25.1	-109.6	-15.7	0.1	/	/
NC(=S)c1cn(C2OC(CO)C(O)C2O)c2ncnc(N)c12 (stereo not drawn)	/	/	-27.0	-0.7	90.1*	21.9
COc1cc2c(cc1O)C[C@H]1NCCc3cc4c(c-2c31)OCO4	-6.7	23.2	7.6	1.2	2.2	-11.0
O=C(Nc1cccc(OC(=O)N2CCOCC2)c1)N1CCOCC1	-7.4	/	-18.3	0.5	72.4*	/
O=P(Nc1ccccc1)(Nc1ccccc1)Oc1ccc(Cl)cc1	321.9*	-6.9	1.0	1.1	/	/
COc1cccc(NP(=O)(Oc2ccc(Cl)cc2)Oc2ccc(Cl)cc2)c1	/	/	/	/	31.1	-3.1
C=C1C(C)C2C(Cc3ccccc3)NC(=O)C23OC(=O)/C=C/C(O)CCCC(C)C/C=C/C3C1O (stereo not drawn)	-3.0	3.4	/	/	?	41.0*
CC1=CC2OC3CC4OC(=O)C=CC=CC(C(C)O)OCC(O)C(C)CC(=O)OCC2(CC1O)C4(C)C31CO1 (stereo not drawn)	-1.2	80.9*	/	/	82.6*	8.4
CCC(=NCCc1c[nH]c2ccccc12)c1c(O)n(C)c(=O)n(C)c1=O	-7.1	4.4	-24.4	2.2	81.4*	12.7
CCC(=NCc1ccc2c(c1)OCO2)c1c(O)n(C)c(=O)n(C)c1=O	-11.8	13.7	4.0	0.4	76.7*	-0.9
CCC(=NCCN1CCCCC1)c1c(O)n(C)c(=O)n(C)c1=O	-3.4	-3.3	-6.4	-1.3	/	/
CCC(=NCCOc1ccc(Cl)cc1)c1c(O)n(C)c(=O)n(C)c1=O	-3.6	15.2	-2.4	0.3	49.6*	0.6
CCC(=NCCc1c[nH]c2ccccc12)c1c(O)n(-c2ccc(C)cc2)c(=O)[nH]c1=O	/	/	/	/	7.7	-16.4
COC(=O)C1=C(c2ccc(-c3ccccc3)c(F)c2)C[C@@H]2CC[C@H]1N2C(=O)NCCNC(C)=O	-2.3	-7.6	-6.6	-1.3	-20.4	-0.1
O=C(NC1CCCCC1)N1Cc2cc(-c3ccccc3)ccc2-n2nncc2C1	12.7	-17.0	-5.1	-1.3	-5.5	-8.9
CC[n+]1c(/C=C/C=C/c2ccc(N(C)C)cc2)sc2ccccc21	-3.6	20.0	99.6*	-3.8	25.9	2.4	Yeast UUG start-2=1.3
CN(C)c1ccc(/C=C/C=C/c2sc3ccccc3[n+]2C)cc1	-2.5	4.8	14.7	-1.4	?	-13.3
O=C(c1ccccc1)c1cn(CC(=O)N2CCOCC2)c2ccccc12	-3.7	-7.5	1.7	1.7	/	/	Yeast UUG start-2=-5.8
Clc1ccc(N2CCNCC2)nn1	/	/	/	/	-5.7	/
CCn1nc(/C=C/c2ccccc2)nc2c(=O)n(C)c(=O)nc1-2	-3.5	69.2*	/	/	26.7	/	C2C12 COX5a inh=-55.8;AID743468=-55.3
COC/C=C1\CN2C3C[C@@H]1[C@H]1COC4=Nc5cc(OC)c(OC)c(OC)c5[C@@]43C[C@@H]12	-13.3	-5.4	-15.3	-1.9	/	/

Assay outcomes: PubChem, Broad Institute
